Like-named read-outs stand apart in the source and are kept apart here. Values belong to the compound of their own block, whether it stands above or below them.
Experiments:
[1] = molecular target: human growth hormone secretagogue receptor (hGHS-R1a) (Homo sapiens, UniProt Q92847); test: Competitive radioligand binding assay (ghrelin receptor), [125I]-ghrelin displacement on GHS-R/HEK 293 membranes; conditions: for binding potency of linear (not cyclized) analogues: linear analogues of compounds 10 and 133
[2] = molecular target: human ghrelin receptor (hGHS-R1a) (Homo sapiens, UniProt Q92847); assay type: cell-based; conditions: functional (agonist) activity, standard method; TFA salts unless otherwise noted
motilin receptor = motilin receptor (Homo sapiens, UniProt O43193); test: Selectivity for the ghrelin receptor versus the motilin receptor; assay type: binding
cyp450 enzymes = conditions: 0.0457 to 100 μM
[3] = system: growth hormone (GH) release; test: Growth hormone response to test compounds in conscious, freely-moving rats (plasma GH by RIA)
[4] = Metabolic stability in human plasma (37° C.); assay type: in vitro ADME; conditions: free amine or salt, with or without PBS buffering
[5] = system: rats with post-operative ileus (POI); assay type: in vivo, rat
[6] = system: gastric emptying in fasted rats; test: Gastric emptying in fasted rats (phenol red methylcellulose meal); assay type: in vivo, rat
morphine-treated rats = test: Model of opioid-delayed gastric emptying and gastrointestinal transit (morphine) in rats; conditions: morphine 3 mg/kg s.c., test compound 300 or 1000 μg/kg i.v., FIG. 16B
[7] = read-out: Binding Activity at the Human Ghrelin Receptor, [125I]-ghrelin competition, GHS-R/HEK 293 membranes, Table 3A
[8] = binding activity at the human ghrelin receptor, [125I]-ghrelin competition, GHS-R/HEK 293 membranes
[9] = binding activity, standard method, TFA salts unless otherwise noted
[10] = binding activity at the human ghrelin receptor, [125I]-ghrelin displacement

Protein sequences, listed by entry. Tags and fused reporters are not part of them.
UniProt Q92847, whole entry: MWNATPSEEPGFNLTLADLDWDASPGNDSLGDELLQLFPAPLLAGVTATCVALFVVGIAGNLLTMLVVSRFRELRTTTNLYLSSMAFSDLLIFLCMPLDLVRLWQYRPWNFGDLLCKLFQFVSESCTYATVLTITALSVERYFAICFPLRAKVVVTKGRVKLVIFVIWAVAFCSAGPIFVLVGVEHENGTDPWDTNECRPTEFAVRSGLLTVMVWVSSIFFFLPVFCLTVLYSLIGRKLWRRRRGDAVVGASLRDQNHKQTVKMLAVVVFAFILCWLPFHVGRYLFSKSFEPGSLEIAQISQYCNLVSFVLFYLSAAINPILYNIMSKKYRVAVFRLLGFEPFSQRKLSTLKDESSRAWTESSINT
UniProt O43193, whole entry: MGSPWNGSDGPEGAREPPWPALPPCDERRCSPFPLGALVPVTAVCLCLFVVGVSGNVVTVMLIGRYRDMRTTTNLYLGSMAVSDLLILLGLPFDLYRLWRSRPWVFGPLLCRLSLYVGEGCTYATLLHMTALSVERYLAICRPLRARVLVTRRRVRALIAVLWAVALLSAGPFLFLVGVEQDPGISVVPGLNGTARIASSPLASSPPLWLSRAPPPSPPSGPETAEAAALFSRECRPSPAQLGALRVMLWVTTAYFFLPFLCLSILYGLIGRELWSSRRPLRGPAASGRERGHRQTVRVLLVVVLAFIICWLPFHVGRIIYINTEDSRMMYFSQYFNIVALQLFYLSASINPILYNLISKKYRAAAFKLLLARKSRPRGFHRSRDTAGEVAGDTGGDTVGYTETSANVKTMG

SMILES: CC(C)CC1NCCOc2ccccc2/C=C/CNC(=O)C(Cc2ccncc2)NC(=O)C2(CCCC2)NC1=O (centres unmarked)
Ki [1, 7]: > 10000 nM

SMILES: CCC(C)[C@@H]1NCCCc2ccccc2C=CCNC(=O)[C@@H](Cc2ccccc2)NC(=O)[C@@H](C)N(C)C1=O (some centres unmarked)
Ki [1, 8]: 10 to 100 nM
Ki [1, 9]: 10 to 100 nM
EC50 [2]: 1 to 100 nM
Selectivity (motilin receptor): >800/1

SMILES: CCC(C)C1NCCOc2ccccc2/C=C/CNC(=O)C(Cc2ccccc2)NC(=O)C2(CCCC2)NC1=O (centres unmarked)
Ki [1, 7]: 10 to 100 nM

SMILES: O=C1NC/C=C/c2ccccc2OCCNC2(CCCCC2)C(=O)NC2(CCCC2)C(=O)N[C@H]1Cc1ccccc1
Ki [1, 7]: 10 to 100 nM

SMILES: CCC(C)C1NCCOc2ccccc2/C=C/CNC(=O)C(Cc2cccc(C(F)(F)F)c2)NC(=O)C2(CCCC2)NC1=O (centres unmarked)
Ki [1, 10]: 100 to 1000 nM

SMILES: CC(C)[C@@H]1NCCOc2ccccc2/C=C\CNC(=O)[C@H](Cc2ccccc2)NC(=O)C2(CCOC2)NC1=O (single isomer, unassigned)
Ki [1, 8]: 100 to 1000 nM
Ki [1, 9]: 100 to 1000 nM

SMILES: CC[C@H](C)[C@@H]1NCC(C)Oc2ccccc2CCCNC(=O)[C@@H](Cc2ccccc2)NC(=O)[C@@H](C)N(C)C1=O (some centres unmarked)
Ki [1, 8]: 10 to 100 nM
Ki [1, 9]: 10 to 100 nM
EC50 [2]: 100 to 1000 nM

SMILES: CC[C@H](C)[C@@H]1NCCCCC=CCCNC(=O)[C@H](Cc2cccc(Cl)c2)NC(=O)C2(CCCC2)NC1=O
Ki [1, 10]: 100 to 1000 nM

SMILES: CCC(C)[C@@H]1NCCOc2ccccc2/C=C/CNC(=O)[C@H](Cc2ccc(F)c(F)c2)NC(=O)C2(CCCC2)NC1=O (some centres unmarked)
Ki [1, 10]: 10 to 100 nM

SMILES: CC[C@@H](C)[C@@H]1NCCOc2ccccc2/C=C/CNC(=O)[C@H](Cc2ccccc2)NC(=O)C2(CCCC2)NC1=O
Ki [1, 7]: 10 to 100 nM

SMILES: CCC(C)[C@@H]1NC[C@@H](C)Oc2ccccc2CCCNC(=O)[C@@H](Cc2ccccc2)NC(=O)[C@@H](C)N(C)C1=O (some centres unmarked)
Ki [1, 8]: 10 to 100 nM
Ki [1, 9]: 10 to 100 nM
EC50 [2]: 1 to 100 nM

SMILES: CCC(C)C1NCCOc2ccccc2/C=C/CNC(=O)C(Cc2cccc(Cl)c2)NC(=O)C2(CCCC2)NC1=O (centres unmarked)
Ki [1, 10]: 10 to 100 nM

SMILES: CCC(C)[C@@H]1NC[C@@H](C)Oc2ccccc2CCCNC(=O)[C@H](Cc2cccc(Cl)c2)NC(=O)C2(CCCC2)NC1=O (some centres unmarked)
Ki [1, 9]: 0.1 to 10 nM
EC50 [2]: > 1000 nM

SMILES: CC(C)C[C@@H]1NCCOc2ccccc2/C=C/CNC(=O)[C@H](Cc2cccnc2)NC(=O)C2(CCCC2)NC1=O
Ki [1, 7]: > 1000 nM

SMILES: C[C@@H]1CN[C@@H](C2CC2)C(=O)N(C)[C@H](C)C(=O)N[C@H](Cc2ccc(F)cc2)C(=O)NCCCc2ccccc2O1
inhibitory activity at cyp450 enzymes tested, except cyp3A4 (cyp450 enzymes): minimal inhibitory activity
IGF-1 levels ([3]; 1000 μg/kg dose): No changes in IGF-1 levels
effect on GH release ([3]; FIG. 9): lack of effect on GH release
effect on ghrelin-induced GH release ([3]; dosed 10 min. prior to ghrelin): neither inhibits nor augments ghrelin-induced GH release
pulsatile GH release in comparison to vehicle controls ([3]; i.v., doses up to 1000 μg/kg): no significant difference in pulsatile GH release
stable in human plasma at 37° C. for [4]: at least 24 hours
effect on postoperative ileus in comparison to POI+vehicle treated rats ([5]; 100 μg/kg i.v., n=5, FIG. 8): significantly improves postoperative ileus
gastric emptying and intestinal transit in POI rats ([5]; 100 and 300 μg/kg (i.v.)): significantly increased gastric emptying and intestinal transit
gastric emptying of a solid meal in naïve rat ([6]; i.v. immediately after meal, FIG. 14): significant gastric emptying in a dose-dependent manner
potency on gastric emptying superior to metoclopramide ([6]; naïve rats, i.v., FIG. 14B): 100 fold
opioid-delayed gastrointestinal transit (morphine-treated rats): effectively reversed in a dose-dependent manner

SMILES: CC(C)C[C@@H]1NCCOc2ccccc2/C=C/CNC(=O)[C@H](Cc2ccncc2)NC(=O)C2(CCCC2)NC1=O
Ki [1, 7]: 1000 to 10000 nM

SMILES: CCC(C)[C@@H]1NCCOc2ccccc2/C=C/CNC(=O)[C@H](Cc2ccc(Cl)c(Cl)c2)NC(=O)C2(CCCC2)NC1=O (some centres unmarked)
Ki [1, 10]: 0.1 to 10 nM

SMILES: CCC[C@@H](C(=O)N(C)CC(=O)N[C@H](Cc1ccccc1)C(N)=O)N(CCOc1ccccc1CCCN)C(C)=O
Ki [1, 8]: > 10000 nM
binding potency of linear (not cyclized) analogues [1]: lack of binding potency

SMILES: CCC(C)[C@@H]1NCCCc2ccccc2/C=C/CNC(=O)[C@@H](Cc2ccc(F)cc2)NC(=O)[C@@H](C)N(C)C1=O (some centres unmarked)
Ki [1, 10]: 10 to 100 nM

SMILES: CC(C)[C@@H]1NCCOc2ccccc2/C=C/CNC(=O)[C@H](Cc2ccccc2)NC(=O)[C@@H](C)N(C)C1=O
Ki [1, 8]: 0.1 to 10 nM

SMILES: CCC(C)C1NCCOc2ccccc2/C=C/CNC(=O)C(Cc2ccc(F)c(F)c2)NC(=O)C2(CCCC2)NC1=O (centres unmarked)
Ki [1, 10]: 100 to 1000 nM

SMILES: CC[C@H](C)[C@@H]1NC[C@H](C)Oc2ccccc2CCCNC(=O)[C@H](Cc2cccc(Cl)c2)NC(=O)C2(CCCC2)NC1=O
Ki [1, 10]: 100 to 1000 nM
Selectivity (motilin receptor): 300/1

SMILES: CC(=O)N(CCOc1ccccc1CCCN)[C@@H](CC(C)C)C(=O)NC1(C(=O)N[C@@H](Cc2ccccc2)C(N)=O)CCCC1
Ki [1, 8]: > 10000 nM
binding potency of linear (not cyclized) analogues [1]: lack of binding potency

Further lines, results first:

Ki [1, 10]: 10 to 100 nM
SMILES: CC[C@H](C)[C@@H]1NCCOc2ccccc2/C=C/CNC(=O)[C@H](Cc2cc(F)cc(F)c2)NC(=O)C2(CCCC2)NC1=O

Selectivity (motilin receptor): 2500/1
SMILES: C[C@@H]1C(=O)N[C@H](Cc2ccc(F)cc2)C(=O)NCCCc2ccc(F)cc2OCCN[C@@H](C2CC2)C(=O)N1C

Ki [1, 10]: 100 to 1000 nM
SMILES: CCC(C)C1NCCOc2ccccc2/C=C/CNC(=O)C(Cc2cc(F)cc(F)c2)NC(=O)C2(CCCC2)NC1=O (centres unmarked)

Ki [1, 7]: > 1000 nM
SMILES: CC(C)CC1NCCOc2ccccc2/C=C/CNC(=O)C(Cc2cccnc2)NC(=O)C2(CCCC2)NC1=O (centres unmarked)

Ki [1, 8]: 100 to 1000 nM
SMILES: CCC[C@@H]1NCCOc2ccccc2CCCNC(=O)[C@@H](Cc2ccccc2)NC(=O)[C@H](C)N(C)C1=O

Ki [1, 10]: 10 to 100 nM
Ki [1, 9]: 10 to 100 nM
EC50 [2]: 1 to 100 nM
SMILES: CC[C@H](C)[C@@H]1NCCCc2ccccc2/C=C/CNC(=O)[C@H](Cc2cccc(Cl)c2)NC(=O)C2(CCCC2)NC1=O

Ki [1, 8]: > 10000 nM
SMILES: CC(C)C[C@@H]1NCCOc2ccccc2CCCNC(=O)CNC(=O)C2(CCCC2)NC1=O

Ki [1, 10]: 100 to 1000 nM
SMILES: CC[C@H](C)[C@@H]1NCCOc2ccccc2/C=C/CNC(=O)[C@@H](COCc2ccccc2)NC(=O)[C@@H](C)N(C)C1=O

EC50 [2]: 1 to 100 nM
SMILES: CC1CN[C@@H](C2CC2)C(=O)N(C)[C@H](C)C(=O)N[C@H](Cc2ccc(F)cc2)C(=O)NCCCc2ccccc2O1 (some centres unmarked)

Ki [1, 8]: > 10000 nM
SMILES: CC(C)C[C@@H]1NCC/C=C/CCNC(=O)[C@H](Cc2ccccc2)NC(=O)C2(CCCC2)NC1=O

Ki [1, 10]: 10 to 100 nM
SMILES: CC(C)[C@@H]1NCCOc2ccccc2/C=C/CNC(=O)[C@H](Cc2ccccc2)NC(=O)C2(CCOC2)NC1=O (some centres unmarked)

Ki [1, 10]: 100 to 1000 nM
SMILES: CCC(C)C1NCCOc2ccccc2/C=C/CNC(=O)C(COCc2ccccc2)NC(=O)C(C)N(C)C1=O (centres unmarked)

— patent US20060025566A1
